Values of other authors in paper PMC7982615, “Phase 1 study of telisotuzumab vedotin in Japanese patients with advanced solid tumors” (Cancer Medicine, 2021).

Test system: MET exon 14‐mutated NSCLC
Set-up: method as in ref 25 = [25]; 25 Paik PK , Veillon R , Cortot AB , et al. Phase II study of tepotinib in NSCLC patients with MET ex14 mutations . J Clin Oncol . 2019; 37 ( suppl 15 ):abstract 9005.
Conditions: evaluable patients; cited from earlier work

For `CN1CCC(COc2cnc(-c3cccc(Cn4nc(-c5cccc(C#N)c5)ccc4=O)c3)nc2)CC1` [tepotinib], the “ORR by independent review committee” value is given as 51.4%.
